The nature of the data set: solubility and stability characteristics compared to human amylin. In kind it is physicochemical.

With `CC[C@H](C)[C@H](NC(=O)[C@@H]1CCCN1C(=O)CNC(=O)[C@H](Cc1ccccc1)NC(=O)[C@H](CC(N)=O)NC(=O)[C@H](CC(N)=O)NC(=O)[C@H](CO)NC(=O)[C@H](CO)NC(=O)[C@H](CCCNC(=N)N)NC(=O)[C@@H](NC(=O)[C@H](CC(C)C)NC(=O)[C@H](Cc1ccccc1)NC(=O)[C@H](CC(N)=O)NC(=O)[C@H](C)NC(=O)[C@H](CC(C)C)NC(=O)[C@H](CCCNC(=N)N)NC(=O)[C@H](CCC(N)=O)NC(=O)[C@@H](NC(=O)[C@H](C)NC(=O)[C@@H]1CSSC[C@H](NC(=O)[C@@H](N)CCCCN)C(=O)N[C@@H](CC(N)=O)C(=O)N[C@@H]([C@@H](C)O)C(=O)N[C@@H](C)C(=O)N[C@@H]([C@@H](C)O)C(=O)N1)[C@@H](C)O)C(C)C)C(=O)N[C@@H](CC(C)C)C(=O)N1CCC[C@H]1C(=O)N[C@@H](CO)C(=O)N[C@H](C(=O)N[C@@H](CC(N)=O)C(=O)N[C@H](C(=O)NCC(=O)N[C@@H](CO)C(=O)N[C@@H](CC(N)=O)C(=O)N[C@H](C(=O)N[C@@H](Cc1ccc(O)cc1)C(N)=O)[C@@H](C)O)C(C)C)[C@@H](C)O` [^18 Arg^25,28 Pro-h-amylin], the solubility characteristics result was “more desirable” and the stability characteristics entry was “more desirable”.

For the compound `CC(C)C[C@H](NC(=O)[C@H](CCCNC(=N)N)NC(=O)[C@H](CCC(N)=O)NC(=O)[C@@H](NC(=O)[C@H](C)NC(=O)[C@@H]1CSSC[C@H](NC(=O)[C@@H](N)CCCCN)C(=O)N[C@@H](CC(N)=O)C(=O)N[C@@H]([C@@H](C)O)C(=O)N[C@@H](C)C(=O)N[C@@H]([C@@H](C)O)C(=O)N1)[C@@H](C)O)C(=O)N[C@@H](C)C(=O)N[C@@H](CC(N)=O)C(=O)N[C@@H](Cc1ccccc1)C(=O)N[C@@H](CC(C)C)C(=O)N[C@H](C(=O)N[C@@H](Cc1c[nH]cn1)C(=O)N[C@@H](CO)C(=O)N[C@@H](CO)C(=O)N[C@@H](CC(N)=O)C(=O)N[C@@H](CC(N)=O)C(=O)N[C@@H](Cc1ccccc1)C(=O)NCC(=O)N1CCC[C@H]1C(=O)N[C@H](C(=O)N[C@@H](CC(C)C)C(=O)N1CCC[C@H]1C(=O)N1CCC[C@H]1C(=O)N[C@H](C(=O)N[C@@H](CC(N)=O)C(=O)N[C@H](C(=O)NCC(=O)N[C@@H](CO)C(=O)N[C@@H](CC(N)=O)C(=O)N[C@H](C(=O)N[C@@H](Cc1ccc(O)cc1)C(N)=O)[C@@H](C)O)C(C)C)[C@@H](C)O)C(C)C)C(C)C` [^25 Pro^26 Val^28,29 Pro-h-amylin], the solubility characteristics entry is “more desirable” and the stability characteristics result was “more desirable”.

The values are drawn from US5739106A, “Appetite regulating compositions” (priority 1995, dated 1998).
